Assay results reported in patent publication US9040714B2 (MannKind Corporation, priority 2010, dated 2015).
pIC50: −log10 of the molar value.

Sequences of proteins named here, by UniProt entry; tags and fusion partners are left off. Residues count along the entry.
UniProt O75460, 19-977: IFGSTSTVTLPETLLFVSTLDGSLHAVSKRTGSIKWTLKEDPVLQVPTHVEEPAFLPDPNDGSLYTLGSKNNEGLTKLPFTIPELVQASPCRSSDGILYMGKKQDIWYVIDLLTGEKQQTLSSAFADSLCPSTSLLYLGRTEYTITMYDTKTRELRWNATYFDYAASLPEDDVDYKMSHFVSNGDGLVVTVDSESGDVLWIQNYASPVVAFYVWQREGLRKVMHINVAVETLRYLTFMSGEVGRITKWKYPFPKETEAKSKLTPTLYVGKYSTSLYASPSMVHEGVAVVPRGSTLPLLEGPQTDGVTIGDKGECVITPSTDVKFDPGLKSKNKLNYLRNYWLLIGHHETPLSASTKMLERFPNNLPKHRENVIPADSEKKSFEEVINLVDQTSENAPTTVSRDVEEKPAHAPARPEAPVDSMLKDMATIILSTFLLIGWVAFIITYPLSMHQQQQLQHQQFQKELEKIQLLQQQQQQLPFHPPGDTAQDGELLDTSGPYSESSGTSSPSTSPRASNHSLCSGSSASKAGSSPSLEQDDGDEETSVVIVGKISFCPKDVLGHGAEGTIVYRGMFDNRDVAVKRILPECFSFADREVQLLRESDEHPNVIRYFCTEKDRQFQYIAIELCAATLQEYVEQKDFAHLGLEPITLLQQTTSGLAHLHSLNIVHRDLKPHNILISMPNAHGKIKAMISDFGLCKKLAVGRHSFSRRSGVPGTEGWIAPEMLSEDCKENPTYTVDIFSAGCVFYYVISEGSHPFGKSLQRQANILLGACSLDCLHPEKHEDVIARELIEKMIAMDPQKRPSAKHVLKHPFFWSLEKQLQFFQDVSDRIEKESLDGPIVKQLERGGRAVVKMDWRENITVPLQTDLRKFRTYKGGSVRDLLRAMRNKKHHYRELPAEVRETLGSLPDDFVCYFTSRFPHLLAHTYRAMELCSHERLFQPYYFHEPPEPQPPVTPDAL

Target: human IRE-1α (GST-IRE-1α) (Homo sapiens (Human), UniProt O75460)
Assay: IRE-1α assay in vitro: cleavage of Cy5/BHQ2-labelled mini-XBP-1 mRNA stem-loop substrate
Type: biochemical
Settings: average IC50 for inhibition of IRE-1α
Description: The compounds are understood to act through inhibition of the RNAse activity of the enzyme. In some embodiments IRE-la inhibitor compounds form a complex with IRE-1α. In particular embodiments this activity is detected as cleavage of a human mini-XBP-1 mRNA stem-loop substrate 5′-CAGUCCGCAGGACUG-3′ (SEQ ID NO:1) by IRE-1α in vitro by 10 to 100%. Other substrates also can be used to detect cleavage. See US 2007/0105123.
A fusion protein comprising glutathione S transferase (GST) and human IRE-1α (GST-IRE-1α) obtained from a 500 ml baculovirus-infected insect cell culture can be used to measure IRE-1α activity in vitro.
Five μl of a reaction mixture comprising IX reaction buffer (5× reaction buffer is 100 mM Hepes pH 7.5, 250 mM KOAc, 2.5 mM MgCl2), 3 mM DTT, and 0.4% polyethylene glycol water is added to each well of 384 well plates. Twenty-five nanoliters of a 1 mM test compound solution are added to test wells. Three μl of a […] IRE-1α preparation are added to each test well and to positive control wells (final concentration 5.82 ng/well). […]
The plates are covered with lids and incubated for one hour at 30° C. The plates are then transferred to an ACQUEST™ microplate reader. Data is analyzed using data analysis software, and the percent activity of IRE-1α is calculated.
IC50 for inhibition of IRE-1α of compounds identified in Table 1 was measured as described in EXAMPLE 35.

## COc1cc2c(C)c(CC(=O)N3CCOCC3)c(=O)oc2c(C=O)c1O [Example 167]
  pIC50: > 7.00
